Paper PMC12069340 (Frontiers in Cellular and Infection Microbiology, 2025)

Tested on: influenza virus PR8

NC(=O)c1ncn([C@@H]2O[C@H](CO)[C@@H](O)[C@H]2O)n1 [ribavirin, Ribavirin]
stage of viral replication inhibited: middle
